Data reported in patent US8959984B2, “Proteome-wide quantification of small molecule binding to cellular target proteins” (priority 2007, dated 2015).
pKi: −log10 of the molar value. Where two headings read alike, the source gives them in different places.

Amino acid sequences for entries named in this document (tags omitted). A change or cut given only in a name is not applied to a line headed by its entry.
UniProt P50750, whole entry: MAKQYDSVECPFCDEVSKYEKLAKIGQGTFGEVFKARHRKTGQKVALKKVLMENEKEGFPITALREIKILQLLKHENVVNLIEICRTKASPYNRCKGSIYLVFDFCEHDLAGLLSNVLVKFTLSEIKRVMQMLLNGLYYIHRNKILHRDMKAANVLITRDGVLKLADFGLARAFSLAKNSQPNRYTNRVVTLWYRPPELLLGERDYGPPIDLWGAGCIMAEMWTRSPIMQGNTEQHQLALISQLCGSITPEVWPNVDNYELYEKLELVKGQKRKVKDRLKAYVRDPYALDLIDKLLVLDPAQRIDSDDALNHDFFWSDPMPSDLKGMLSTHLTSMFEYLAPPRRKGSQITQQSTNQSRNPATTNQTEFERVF
UniProt P68400, whole entry: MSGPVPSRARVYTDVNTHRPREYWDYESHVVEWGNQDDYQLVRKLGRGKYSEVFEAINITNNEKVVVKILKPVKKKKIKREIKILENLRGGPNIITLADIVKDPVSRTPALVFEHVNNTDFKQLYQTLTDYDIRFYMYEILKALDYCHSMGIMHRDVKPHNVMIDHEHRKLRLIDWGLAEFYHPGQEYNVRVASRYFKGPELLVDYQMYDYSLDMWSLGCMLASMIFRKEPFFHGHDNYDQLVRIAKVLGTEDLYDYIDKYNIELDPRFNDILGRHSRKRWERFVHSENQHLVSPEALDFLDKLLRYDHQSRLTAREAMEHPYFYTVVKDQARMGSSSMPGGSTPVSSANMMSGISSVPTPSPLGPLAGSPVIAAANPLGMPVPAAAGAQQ
UniProt P50613: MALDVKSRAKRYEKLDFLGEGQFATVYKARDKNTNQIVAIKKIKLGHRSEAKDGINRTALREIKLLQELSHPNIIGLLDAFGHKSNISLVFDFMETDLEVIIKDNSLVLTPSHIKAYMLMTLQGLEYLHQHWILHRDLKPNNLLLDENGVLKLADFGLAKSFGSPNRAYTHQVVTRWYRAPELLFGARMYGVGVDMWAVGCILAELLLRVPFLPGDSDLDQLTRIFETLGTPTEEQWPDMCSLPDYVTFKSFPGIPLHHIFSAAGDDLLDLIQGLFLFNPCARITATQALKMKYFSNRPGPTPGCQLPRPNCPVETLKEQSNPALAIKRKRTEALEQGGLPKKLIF
UniProt Q9H6S1, whole entry: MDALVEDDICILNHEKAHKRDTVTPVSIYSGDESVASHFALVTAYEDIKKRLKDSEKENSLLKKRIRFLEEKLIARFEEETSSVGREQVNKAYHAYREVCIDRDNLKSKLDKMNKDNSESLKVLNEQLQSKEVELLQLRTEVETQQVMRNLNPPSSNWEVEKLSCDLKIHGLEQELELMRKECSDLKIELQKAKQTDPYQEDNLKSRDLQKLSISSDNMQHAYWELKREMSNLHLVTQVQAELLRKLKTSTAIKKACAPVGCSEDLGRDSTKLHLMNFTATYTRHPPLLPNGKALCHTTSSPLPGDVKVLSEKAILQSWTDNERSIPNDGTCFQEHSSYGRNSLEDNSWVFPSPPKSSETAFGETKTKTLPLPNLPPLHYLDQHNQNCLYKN
UniProt O14976: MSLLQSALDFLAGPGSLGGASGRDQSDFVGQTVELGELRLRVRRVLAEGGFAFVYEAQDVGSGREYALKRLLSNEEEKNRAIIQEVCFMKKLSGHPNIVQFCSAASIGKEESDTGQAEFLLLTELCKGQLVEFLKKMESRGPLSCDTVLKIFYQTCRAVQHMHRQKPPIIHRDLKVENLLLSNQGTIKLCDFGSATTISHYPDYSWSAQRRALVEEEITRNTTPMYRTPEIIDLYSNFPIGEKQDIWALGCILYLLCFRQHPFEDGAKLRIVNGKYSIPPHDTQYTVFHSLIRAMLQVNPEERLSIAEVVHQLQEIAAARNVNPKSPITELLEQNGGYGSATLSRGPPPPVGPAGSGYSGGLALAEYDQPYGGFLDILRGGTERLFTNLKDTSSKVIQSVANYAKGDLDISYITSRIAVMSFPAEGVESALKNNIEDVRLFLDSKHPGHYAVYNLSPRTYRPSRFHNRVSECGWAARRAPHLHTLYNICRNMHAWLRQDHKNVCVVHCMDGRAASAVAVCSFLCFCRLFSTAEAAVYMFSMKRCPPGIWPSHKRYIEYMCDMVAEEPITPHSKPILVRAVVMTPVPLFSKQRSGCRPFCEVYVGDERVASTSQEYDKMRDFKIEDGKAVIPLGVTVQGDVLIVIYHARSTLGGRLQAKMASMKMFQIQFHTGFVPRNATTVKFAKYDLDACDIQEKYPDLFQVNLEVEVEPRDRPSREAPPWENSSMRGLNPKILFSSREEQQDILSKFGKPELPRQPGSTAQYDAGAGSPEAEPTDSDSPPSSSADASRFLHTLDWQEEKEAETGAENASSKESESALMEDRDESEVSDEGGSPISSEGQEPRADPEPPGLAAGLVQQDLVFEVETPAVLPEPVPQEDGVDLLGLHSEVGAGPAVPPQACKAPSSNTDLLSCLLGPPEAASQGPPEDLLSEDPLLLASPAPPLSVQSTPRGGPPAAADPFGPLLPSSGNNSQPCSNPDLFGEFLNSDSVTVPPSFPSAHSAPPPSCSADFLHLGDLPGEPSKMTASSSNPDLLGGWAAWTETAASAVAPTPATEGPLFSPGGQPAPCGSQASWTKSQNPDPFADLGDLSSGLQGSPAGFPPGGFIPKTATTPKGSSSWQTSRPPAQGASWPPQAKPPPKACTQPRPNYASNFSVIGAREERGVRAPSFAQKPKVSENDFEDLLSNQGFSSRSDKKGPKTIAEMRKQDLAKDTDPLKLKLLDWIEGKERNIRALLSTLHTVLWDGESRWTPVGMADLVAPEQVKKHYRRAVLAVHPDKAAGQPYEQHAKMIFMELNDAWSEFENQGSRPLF
UniProt Q99714: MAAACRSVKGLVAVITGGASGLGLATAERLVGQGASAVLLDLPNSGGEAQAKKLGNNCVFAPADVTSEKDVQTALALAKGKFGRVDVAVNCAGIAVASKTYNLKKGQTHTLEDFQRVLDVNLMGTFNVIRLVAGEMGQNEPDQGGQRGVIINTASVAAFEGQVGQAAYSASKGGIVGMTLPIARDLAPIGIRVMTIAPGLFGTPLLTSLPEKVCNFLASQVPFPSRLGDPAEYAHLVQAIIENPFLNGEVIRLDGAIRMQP
UniProt O43353, whole entry: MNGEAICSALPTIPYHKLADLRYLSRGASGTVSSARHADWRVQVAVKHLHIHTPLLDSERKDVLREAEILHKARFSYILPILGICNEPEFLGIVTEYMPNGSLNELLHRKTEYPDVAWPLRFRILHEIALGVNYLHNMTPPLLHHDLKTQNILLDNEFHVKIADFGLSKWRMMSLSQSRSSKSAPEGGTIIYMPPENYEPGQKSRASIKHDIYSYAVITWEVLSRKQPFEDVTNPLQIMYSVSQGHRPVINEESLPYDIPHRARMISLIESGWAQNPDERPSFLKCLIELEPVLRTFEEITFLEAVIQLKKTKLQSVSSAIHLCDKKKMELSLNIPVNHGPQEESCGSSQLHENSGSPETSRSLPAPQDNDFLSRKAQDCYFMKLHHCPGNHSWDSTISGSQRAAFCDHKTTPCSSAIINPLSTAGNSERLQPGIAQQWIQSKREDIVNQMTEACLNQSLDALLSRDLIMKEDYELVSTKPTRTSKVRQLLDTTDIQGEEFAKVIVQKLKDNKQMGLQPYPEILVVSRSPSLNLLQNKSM
UniProt Q9P0L2: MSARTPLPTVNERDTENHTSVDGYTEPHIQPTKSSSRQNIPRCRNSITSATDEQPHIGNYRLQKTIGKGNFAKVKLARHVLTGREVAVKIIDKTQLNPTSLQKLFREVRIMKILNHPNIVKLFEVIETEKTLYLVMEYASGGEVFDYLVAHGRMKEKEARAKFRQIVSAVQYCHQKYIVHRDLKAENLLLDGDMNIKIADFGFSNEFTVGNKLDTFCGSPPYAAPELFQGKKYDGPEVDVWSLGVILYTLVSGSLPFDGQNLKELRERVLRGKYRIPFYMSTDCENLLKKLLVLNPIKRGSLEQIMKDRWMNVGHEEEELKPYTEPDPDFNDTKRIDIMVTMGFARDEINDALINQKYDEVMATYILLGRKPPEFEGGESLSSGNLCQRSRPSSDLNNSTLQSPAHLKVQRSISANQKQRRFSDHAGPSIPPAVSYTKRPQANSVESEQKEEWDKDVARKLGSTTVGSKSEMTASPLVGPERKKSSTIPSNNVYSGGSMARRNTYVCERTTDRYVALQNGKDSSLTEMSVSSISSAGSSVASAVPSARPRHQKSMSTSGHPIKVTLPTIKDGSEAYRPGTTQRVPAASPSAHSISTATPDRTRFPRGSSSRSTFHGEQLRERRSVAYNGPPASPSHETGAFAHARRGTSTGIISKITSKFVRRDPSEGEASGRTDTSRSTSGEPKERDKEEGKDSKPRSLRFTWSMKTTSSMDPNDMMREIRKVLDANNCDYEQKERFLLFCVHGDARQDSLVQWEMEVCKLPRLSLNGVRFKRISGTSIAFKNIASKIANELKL
UniProt P31946: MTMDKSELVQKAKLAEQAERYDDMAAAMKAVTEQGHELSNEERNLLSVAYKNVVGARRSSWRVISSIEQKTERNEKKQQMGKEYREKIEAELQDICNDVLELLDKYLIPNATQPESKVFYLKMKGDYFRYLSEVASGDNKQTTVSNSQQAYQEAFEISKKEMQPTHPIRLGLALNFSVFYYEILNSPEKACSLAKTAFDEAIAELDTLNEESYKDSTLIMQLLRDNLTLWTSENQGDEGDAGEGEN
UniProt O94921: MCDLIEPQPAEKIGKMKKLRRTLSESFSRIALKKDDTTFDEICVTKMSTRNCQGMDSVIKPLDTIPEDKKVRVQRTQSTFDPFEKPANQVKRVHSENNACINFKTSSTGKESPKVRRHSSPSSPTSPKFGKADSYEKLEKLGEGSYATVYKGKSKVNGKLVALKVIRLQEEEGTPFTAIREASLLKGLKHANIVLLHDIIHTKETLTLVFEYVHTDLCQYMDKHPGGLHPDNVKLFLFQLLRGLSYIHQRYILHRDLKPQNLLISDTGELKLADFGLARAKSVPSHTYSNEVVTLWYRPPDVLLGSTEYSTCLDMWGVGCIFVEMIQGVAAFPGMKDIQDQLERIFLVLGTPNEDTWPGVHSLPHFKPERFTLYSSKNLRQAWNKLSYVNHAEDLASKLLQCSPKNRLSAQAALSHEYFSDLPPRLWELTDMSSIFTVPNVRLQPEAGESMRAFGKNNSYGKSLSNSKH
UniProt Q14289, whole entry: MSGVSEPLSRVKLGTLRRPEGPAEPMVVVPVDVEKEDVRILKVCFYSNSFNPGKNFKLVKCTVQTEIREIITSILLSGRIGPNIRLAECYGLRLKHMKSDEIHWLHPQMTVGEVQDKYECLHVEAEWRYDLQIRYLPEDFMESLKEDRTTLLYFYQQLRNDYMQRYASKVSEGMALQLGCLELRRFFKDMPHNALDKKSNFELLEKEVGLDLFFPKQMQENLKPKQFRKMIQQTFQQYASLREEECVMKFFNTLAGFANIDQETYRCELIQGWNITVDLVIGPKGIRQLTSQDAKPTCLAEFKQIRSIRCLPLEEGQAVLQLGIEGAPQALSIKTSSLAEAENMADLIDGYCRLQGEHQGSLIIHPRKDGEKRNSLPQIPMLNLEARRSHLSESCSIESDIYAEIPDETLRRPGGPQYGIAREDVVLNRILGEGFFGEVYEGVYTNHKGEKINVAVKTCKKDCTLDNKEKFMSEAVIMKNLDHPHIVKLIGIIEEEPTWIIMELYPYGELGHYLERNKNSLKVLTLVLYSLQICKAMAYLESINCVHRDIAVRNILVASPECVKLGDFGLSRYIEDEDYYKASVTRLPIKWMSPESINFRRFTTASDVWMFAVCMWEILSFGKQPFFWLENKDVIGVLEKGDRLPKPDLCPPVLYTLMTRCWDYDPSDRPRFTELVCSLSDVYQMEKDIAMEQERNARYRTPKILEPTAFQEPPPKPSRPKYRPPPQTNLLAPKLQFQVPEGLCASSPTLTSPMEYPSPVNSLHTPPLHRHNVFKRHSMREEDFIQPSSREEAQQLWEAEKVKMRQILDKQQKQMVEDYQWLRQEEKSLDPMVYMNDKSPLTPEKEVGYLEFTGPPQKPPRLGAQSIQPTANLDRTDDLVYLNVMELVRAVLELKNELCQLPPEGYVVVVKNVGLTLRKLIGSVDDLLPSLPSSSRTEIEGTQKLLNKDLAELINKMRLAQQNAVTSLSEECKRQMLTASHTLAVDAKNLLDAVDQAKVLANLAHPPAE
UniProt P49674: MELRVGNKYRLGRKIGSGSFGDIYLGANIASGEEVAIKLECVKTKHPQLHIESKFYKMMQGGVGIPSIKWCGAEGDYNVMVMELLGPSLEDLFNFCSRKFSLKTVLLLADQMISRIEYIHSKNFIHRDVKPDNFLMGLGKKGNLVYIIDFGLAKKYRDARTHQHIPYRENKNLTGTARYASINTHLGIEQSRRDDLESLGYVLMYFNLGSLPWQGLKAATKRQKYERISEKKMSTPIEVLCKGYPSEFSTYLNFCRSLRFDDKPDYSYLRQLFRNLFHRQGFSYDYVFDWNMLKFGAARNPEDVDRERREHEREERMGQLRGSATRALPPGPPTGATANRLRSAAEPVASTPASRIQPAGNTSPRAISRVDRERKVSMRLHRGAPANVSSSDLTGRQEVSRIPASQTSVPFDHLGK

Assays:
Experiment in all cases: Ki determination for immobilized VI16742: two consecutive incubations, control beads, ligand concentration and incubation time controls (Tables 7, 8)
Type in all cases: binding
[1] = molecular target: T1, cellular target proteins in HeLa cell lysate (Homo sapiens, UniProt Q13011); conditions: Ki (VI16742), ECH1 IPI00011416
T1 sequence (Q13011 34-328): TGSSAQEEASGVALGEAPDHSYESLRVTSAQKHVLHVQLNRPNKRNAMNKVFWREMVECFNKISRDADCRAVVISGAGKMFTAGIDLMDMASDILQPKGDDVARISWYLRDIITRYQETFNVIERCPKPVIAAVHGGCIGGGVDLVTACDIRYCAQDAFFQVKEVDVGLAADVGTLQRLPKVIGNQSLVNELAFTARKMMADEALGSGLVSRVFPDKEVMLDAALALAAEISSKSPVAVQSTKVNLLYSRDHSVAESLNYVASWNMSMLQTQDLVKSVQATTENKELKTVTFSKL

[2] = molecular target: cellular target proteins in HeLa cell lysate (Homo sapiens, UniProt P50750); conditions: Ki (VI16742), CDK9 IPI00552413
[3] = molecular target: cellular target proteins in HeLa cell lysate (Homo sapiens, UniProt P68400); conditions: Ki (VI16742), CK2a1 (CSNK2A1) IPI00016613
[4] = molecular target: cellular target proteins in HeLa cell lysate (Homo sapiens, UniProt P50613); conditions: Ki (VI16742), CDK7 IPI00000685
[5] = molecular target: cellular target proteins in HeLa cell lysate (Homo sapiens, UniProt O95835)
[6] = molecular target: cellular target proteins in HeLa cell lysate (Homo sapiens, UniProt Q9H6S1); conditions: Ki (VI16742), AZI2 IPI00008255
[7] = molecular target: cellular target proteins in HeLa cell lysate (Homo sapiens, UniProt O14976); conditions: Ki (VI16742), GAK IPI00298949
[8] = molecular target: cellular target proteins in HeLa cell lysate (Homo sapiens, UniProt Q86YS7); conditions: Ki (VI16742), KIAA0528 IPI00783895
[9] = molecular target: cellular target proteins in HeLa cell lysate (Homo sapiens, UniProt Q99714); conditions: Ki (VI16742), HSD17B10 IPI00017726
[10] = molecular target: cellular target proteins in HeLa cell lysate (Homo sapiens, UniProt O43353); conditions: Ki (VI16742), RIPK2 IPI00021917
[11] = molecular target: cellular target proteins in HeLa cell lysate (Homo sapiens, UniProt Q9P0L2); conditions: Ki (VI16742), MARK1 IPI00185037
[12] = molecular target: cellular target proteins in HeLa cell lysate (Homo sapiens, UniProt O60331); conditions: Ki (VI16742), PIP5K1C IPI00029009
[13] = molecular target: cellular target proteins in HeLa cell lysate (Homo sapiens, UniProt P31946); conditions: Ki (VI16742), YWHAB IPI00216318
[14] = molecular target: cellular target proteins in HeLa cell lysate (Homo sapiens, UniProt O94921)
[15] = molecular target: cellular target proteins in HeLa cell lysate (Homo sapiens, UniProt Q14289)
[16] = molecular target: cellular target proteins in HeLa cell lysate (Homo sapiens, UniProt P49674); conditions: Ki (VI16742), CK1e (CSNK1E) IPI00027729

**Q.** How did the pKi [1] turn out when CC(C)n1c(=O)ccc2cnc(Nc3ccc(OCCN)cc3)nc21 [V16742] was run?
**A.** 5.14

**Q.** What about the pKi [2] of the same compound?
**A.** 5.13

**Q.** And the pKi [3]?
**A.** 4.66

**Q.** And the pKi [4]?
**A.** 4.34

**Q.** What about the pKi [5] of the same compound?
**A.** 4.78

**Q.** And the pKi [6]?
**A.** 5.07

**Q.** And the pKi [7]?
**A.** 4.54

**Q.** And the pKi [8]?
**A.** 4.52

**Q.** What about the pKi [9] of the same compound?
**A.** 4.26

**Q.** And the pKi [10]?
**A.** 5.30

**Q.** And the pKi [11]?
**A.** 5.13

**Q.** And the pKi [12]?
**A.** 4.22

**Q.** What about the pKi [13] of the same compound?
**A.** 4.50

**Q.** What about the pKi [14] of the same compound?
**A.** 5.19

**Q.** And the pKi [15]?
**A.** 4.59

**Q.** What about the pKi ([15]; Ki (VI16742), PYK2 (PTK2B) IPI00029702) of the same compound?
**A.** 4.57

**Q.** And the pKi [16]?
**A.** 4.85
